Biological target: DimDAF-12 (Dirofilaria immitis, UniProt A0A7D0JJL8)
Format: cell-based
Conditions: read-out: EC50 (logEC50 SE) (converted)

The chains behind the UniProt entries cited, without tags or fusion partners. Residues count along the entry.
UniProt A0A7D0JJL8, 587-828 limits assumed: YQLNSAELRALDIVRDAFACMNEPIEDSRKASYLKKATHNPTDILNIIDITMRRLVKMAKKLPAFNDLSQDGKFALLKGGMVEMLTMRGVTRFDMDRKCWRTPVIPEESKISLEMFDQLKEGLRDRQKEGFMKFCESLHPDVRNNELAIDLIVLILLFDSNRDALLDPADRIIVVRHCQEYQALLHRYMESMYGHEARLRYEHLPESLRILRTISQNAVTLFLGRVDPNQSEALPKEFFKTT

## 3β-hydroxy-5-cholestenoic acid
  EC50: 192 nM
